# Antibody variant affinities, Ab-14 heavy chain, assay B

Reference: Li et al. 2023, doi:10.1038/s41467-023-39022-2. File: FLAb, binding data.

Target: peptide PDVDLGDISGINAS, taken from heptad repeat 2 (HR2) of SARS-CoV-2 spike.

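The starting antibody came from a phage panning campaign against this peptide. The variants were designed computationally from a first round of random CDR variants and then made and measured. Their group label is 14H_En_HC (En: ensemble of fine-tuned language models; HC: hill climbing; a sequence that several methods proposed may carry one label only). In AlphaSeq, yeast of one mating type display the scFv and yeast of the other type display the target. Pairs that bind mate more often; barcode pairs of the diploids are counted by sequencing. Read counts were normalised to the haploid input and turned into Kd by a linear fit to BCL2-family pairs of known affinity, for each replicate. Mating was done six times.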

Each scFv is VH, the linker GGGGSGGGGSGGGGS, VL, as in the parent Ab-14, and differs from it in the CDRs of the heavy chain only.
VH: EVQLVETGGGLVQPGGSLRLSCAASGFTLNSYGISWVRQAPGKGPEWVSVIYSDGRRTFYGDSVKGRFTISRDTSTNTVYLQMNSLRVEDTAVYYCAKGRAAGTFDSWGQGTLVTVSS
VL: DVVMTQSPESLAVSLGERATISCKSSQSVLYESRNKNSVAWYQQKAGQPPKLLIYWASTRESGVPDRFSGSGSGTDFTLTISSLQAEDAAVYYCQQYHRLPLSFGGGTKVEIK

Variants are written as CDR1, CDR2 and CDR3 of the heavy chain (limits as in the source). Parent: GFTLNSYGIS, VIYSDGRRTFYGDSVK, GRAAGTFDS. Affinities are written as log10 Kd with Kd in nM; a lower number is a better binder. Replicates are averaged; those with no signal do not enter the mean. "n.d." means that the variant was in the library but no mating with the target was seen in that replicate; the authors take this as a sign of poor binding, and no number exists. The authors' rule: three or more of the six replicates give a measured affinity, fewer mean a poor binder. As a blank, each scFv also met three strains without target: over all heavy chain designs, 1% of these pairings were detected, typically at 2.08 and seldom below 0.84. For each scFv, signals with the empty controls are counted beside the result, with their mean in brackets. Of ten entries with the parent sequence, four were seen in most replicates (averages 0.34 to 2.37), three in one and three in none, so single entries are noisy. Values of this round are not directly comparable with the first-round values of the same sequences.

CDR-H1 | CDR-H2 | CDR-H3 | log10 Kd, replicates | mean, log10 nM | signal with controls
GFDLNEYGIS | VIYADGRRTFYDDSVK | GKTAGTFDQ | -0.16 / -0.38 / -0.31 / -0.04 / -0.45 / -0.66 | -0.33 | 0 of 18
GFDLNEYGIS | VIYADGRRTFYSDSVK | GGNGGTFDI | 1.20 / 0.61 / 0.34 / 0.91 / 0.47 / 0.70 | 0.71 | 0 of 18
GFDLNEYGIS | VIYADGRRTFYADSVK | GEHAGSFDI | 0.96 / 0.01 / -0.07 / 0.33 / -0.40 / -0.24 | 0.10 | 0 of 18
GFQLDEYGIS | VIYADGRRTFYQDSVK | GEVAGTFDS | -0.04 / -0.06 / -0.61 / 0.15 / -0.23 / -0.02 | -0.14 | 0 of 18
GFDLNEYGIS | VIYADGRRTFYTDSVK | GEFAGTFDE | -0.07 / -0.78 / -0.31 / -0.35 / -0.49 / -0.60 | -0.43 | 0 of 18
GFDLEEYGIS | VIYADGRRTFYSDSVK | GEAAGTFDQ | 0.25 / -0.03 / -0.01 / -0.18 / -0.11 / -0.14 | -0.04 | 0 of 18
GFDLNEYGIS | VIYADGRRTFYSDSVK | GQNGGTFDE | -0.07 / 0.03 / -0.29 / -0.01 / -0.07 / 0.50 | 0.01 | 0 of 18
GFDLNEYGIS | VIYADGRRTAYSDSVK | GNQAGTFDQ | -0.06 / 0.35 / 0.00 / 0.03 / 0.15 / 0.18 | 0.11 | 0 of 18
GFDLNEYGIS | VIYADGRRTFYKDSVK | GESAGTFDQ | -0.28 / -0.42 / -0.60 / -0.40 / -0.59 / -0.20 | -0.41 | 1 of 18 (1.67)
GFDLNEYGIS | VIYADGRRTAYADSVK | GEVAGTFVS | -0.30 / -0.61 / -0.38 / -0.54 / 0.20 / -0.30 | -0.32 | 0 of 18
GFDLNEYGIS | VIYADGRRTAYHDSVK | GEAAGTFDQ | 0.57 / 1.29 / -0.04 / 0.41 / 0.24 / 0.63 | 0.52 | 0 of 18
GFDLNEYGIS | VIYADGVRTFYTDSVK | GANAGTFDV | -0.31 / -0.66 / -0.56 / -0.67 / -0.60 / -0.48 | -0.55 | 0 of 18
GFDLNEYGIS | VIYADGRRTAYSDSVK | GEIGGTFDS | -0.29 / -0.38 / 0.50 / -0.02 / -0.01 / -0.41 | -0.10 | 0 of 18
GFDLNEYGIS | VIYADGIRTFYADSVK | GNQAGTFDS | -0.31 / -0.18 / -0.37 / -0.44 / -0.54 / -0.50 | -0.39 | 2 of 18 (2.87)
GFDLNEYGIS | VIYADGRRTAYTDNVK | GQNAGTFDV | -0.50 / -0.60 / -0.67 / -0.82 / -0.51 / -0.30 | -0.57 | 0 of 18
GFDLNEYGIS | VIYADGVRTQYTDSVK | GEIAGTFDS | n.d. / -0.51 / n.d. / -0.27 / 1.32 / n.d. | 0.18 | 0 of 18
GFDLNEYGIS | VIYADGQRTAYADSVK | GKVAGTFDL | -0.63 / -0.84 / -0.72 / -1.06 / -0.68 / -0.61 | -0.76 | 0 of 18
GFDLEDYGIS | VIYADGKRTAYIDSVK | GEVAGTFDV | 0.00 / 0.13 / 0.44 / -0.57 / -0.56 / 0.06 | -0.08 | 0 of 18
GFDLEEYGIS | VIYADGRRTFYTDSVK | GETAGTFDV | -0.93 / -0.69 / -0.51 / -0.70 / -0.39 / -0.09 | -0.55 | 0 of 18
GFDLNEYGIS | VIYADGRRTAYADSVK | GQVAGTFDS | -0.45 / -1.06 / -1.09 / -1.12 / -1.09 / -0.99 | -0.97 | 0 of 18
GFDLNEYGIS | VIYADGRRTFYADSVK | GEAAGTFDT | -0.67 / -0.61 / -0.76 / -0.73 / -0.69 / -0.48 | -0.66 | 0 of 18
GFDLNEYGIS | VIYADGMRTFYADSVK | GHVAGTFVS | 0.02 / n.d. / 0.33 / 0.15 / 0.80 / 0.01 | 0.26 | 0 of 18
GFNLNEYGIS | VIYADGRRTFYTDDVK | GEEAGTFDL | 0.44 / -0.18 / -0.50 / 0.20 / -0.16 / 0.12 | -0.01 | 0 of 18
GFNLDEYGIS | VIYADGRRTFYADNVK | GEAAGTFDI | -0.68 / 0.17 / -0.45 / -0.08 / -0.86 / -0.23 | -0.35 | 0 of 18
GFDLDEYGIS | VIYADGRRTFYADSVK | GTIAGTFDA | -0.22 / -0.28 / -0.41 / -0.24 / -0.54 / 0.04 | -0.28 | 0 of 18
GFDLNEYGIS | VIYADGRRTFYTDSVK | GGNAGTFDM | -0.02 / -0.45 / -0.33 / -0.38 / -0.22 / -0.22 | -0.27 | 0 of 18
GFDLNEYGIS | VIYADGRRTAYLDSVK | GEAAGTFDT | -0.23 / -0.34 / -0.43 / -0.58 / -0.43 / -0.10 | -0.35 | 0 of 18
GFDLNEYGIS | VIYADGQRTAYADSVK | GKNAGTFDS | 0.01 / -0.47 / -0.21 / -0.82 / -0.36 / 0.05 | -0.30 | 0 of 18
GFDLDEYGIS | VIYADGRRTFYADSVK | GEVAGTFDI | -0.13 / -0.23 / -0.25 / -0.44 / -0.67 / -0.07 | -0.30 | 2 of 18 (3.43)
GFDLNEYGIS | VIYADGRRTAYIDSVK | GTNAGTFDS | -0.99 / -0.64 / -1.07 / -1.16 / -0.86 / -0.98 | -0.95 | 1 of 18 (1.12)
GFDLDEYGIS | VIYADGRRTFYADSVK | GEIAGTFDS | -0.21 / 0.26 / -0.30 / 0.05 / 0.59 / 0.06 | 0.08 | 0 of 18
GFDLNEYGIS | VIYADGRRTFYSDSVK | GNIAGTFIQ | -0.56 / -0.83 / -0.64 / -0.68 / -0.69 / -0.67 | -0.68 | 0 of 18
GFDLNEYGIS | VIYADGMRTFYADSVK | GNIAGTFDV | -0.28 / -0.93 / -0.88 / -1.24 / -1.12 / -0.83 | -0.88 | 1 of 18 (0.88)
GFDLNEYGIS | VIYADGMRTHYTDSVK | GNEAGTFDV | 0.30 / -0.28 / -0.28 / -0.45 / -0.41 / 0.03 | -0.18 | 1 of 18 (1.40)
GFDLNEYGIS | VIYADGRRTYYSDSVK | GEAAGTFVI | 2.23 / n.d. / n.d. / 3.33 / n.d. / 2.16 | 2.57 | 0 of 18
GFDLDEYGIS | VIYADGRRTFYKDSVK | GGNAGTFDM | 0.13 / n.d. / n.d. / n.d. / n.d. / n.d. | 0.13 | 0 of 18
GFDLEDYGIS | VIYADGMRTQYIDSVK | GEQAGTFDL | 1.17 / 0.99 / 0.63 / 0.87 / 1.06 / 0.63 | 0.89 | 0 of 18
GFDLNEYGIS | VIYADGRRTAYADSVK | GQLAGTFSV | -0.24 / -0.13 / -0.32 / -0.54 / -0.44 / -0.33 | -0.33 | 1 of 18 (1.81)
GFSLDEYGIS | VIYADGRRTFYTDDVK | GNVAGTFDV | -0.20 / -0.72 / -0.30 / -0.42 / -0.57 / -0.22 | -0.40 | 0 of 18
GFNLNEYGIS | VIYADGRRTAYADSVK | GEHAGSFDI | 0.13 / -0.28 / 0.00 / -0.25 / -0.44 / 0.10 | -0.12 | 0 of 18
GFDLNEYGIS | VIYADGRRTFYTDSVK | GEAAGTFDV | -0.50 / -0.56 / -0.69 / -0.68 / -0.76 / -0.58 | -0.63 | 0 of 18
GFDLNEYGIS | VIYADGVRTFYADSVK | GEVAGTFVS | -1.02 / -0.78 / -0.36 / -1.00 / -1.49 / -1.15 | -0.97 | 0 of 18
GFDLNEYGIS | VIYADGSRTFYTDSVK | GENAGTFDV | -0.05 / -0.26 / -0.25 / -0.71 / -0.22 / -0.37 | -0.31 | 0 of 18
GFDLNEYGIS | VIYADGRRTFYIDSVK | GEEAGTFNV | -0.12 / 0.08 / 0.07 / -0.01 / -0.57 / -0.34 | -0.15 | 0 of 18
GFDLNEYGIS | VIYADGRRTFYIDSVK | GTNAGTFDS | -0.36 / -0.42 / -0.34 / -0.55 / -0.25 / -0.17 | -0.35 | 0 of 18
GFDLNEYGIS | VIYADGRRTAYADSVK | GQLAGTFDS | -0.92 / -0.66 / -0.84 / -0.93 / -0.96 / -0.97 | -0.88 | 0 of 18
GFDLEDYGIS | VIYADGRRTFYSDSVK | GETAGTFDS | -0.49 / -0.21 / -0.40 / -0.87 / -0.59 / -0.30 | -0.48 | 0 of 18

The 5 strongest on average among those seen in every replicate, once more:

CDR-H1 | CDR-H2 | CDR-H3 | log10 Kd, replicates | mean, log10 nM | signal with controls
GFDLNEYGIS | VIYADGVRTFYADSVK | GEVAGTFVS | -1.02 / -0.78 / -0.36 / -1.00 / -1.49 / -1.15 | -0.97 | 0 of 18
GFDLNEYGIS | VIYADGRRTAYADSVK | GQVAGTFDS | -0.45 / -1.06 / -1.09 / -1.12 / -1.09 / -0.99 | -0.97 | 0 of 18
GFDLNEYGIS | VIYADGRRTAYIDSVK | GTNAGTFDS | -0.99 / -0.64 / -1.07 / -1.16 / -0.86 / -0.98 | -0.95 | 1 of 18 (1.12)
GFDLNEYGIS | VIYADGMRTFYADSVK | GNIAGTFDV | -0.28 / -0.93 / -0.88 / -1.24 / -1.12 / -0.83 | -0.88 | 1 of 18 (0.88)
GFDLNEYGIS | VIYADGRRTAYADSVK | GQLAGTFDS | -0.92 / -0.66 / -0.84 / -0.93 / -0.96 / -0.97 | -0.88 | 0 of 18